Source: PubChem BioAssay AID2025 (NMMLSC, 2009)
The list shows a part of the results, in another mix than the full data. Active and inactive are the calls of the source.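 How the source made its calls: active means percent response vs DMSO below 50%; inconclusive means fewer than 70 events counted for the yeast strain; inactive means the rest.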

test: compounds altering RPL19A-GFP fluorescence, TOR branch – cell-based, S. cerevisiae, multiplex flow cytometry, MLPCN, primary screen (AID 2025);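 further: median channel GFP fluorescence of the barcoded RPL19A-GFP strain; ratio of sample median GFP to plate DMSO average so 100% = DMSO; lower means less RPL19A-GFP as with rapamycin TOR inhibition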; conditions: S. cerevisiae RPL19A-GFP strain, 3 h, at 10 µM, hits give low values

SMILES	percent response vs DMSO
CC(C)NC(=O)NP(=O)(Oc1ccccc1)Oc1ccccc1	inactive: 96.9%
CCN(CC)C(=S)SC(NC=O)C(Cl)(Cl)Cl (stereo not given)	inactive: 100%
ClCCSc1nnc(-c2cccnc2)o1	inactive: 93.9%
CC(C)c1ccc(OP(=O)(Nc2ccccn2)Oc2ccccc2F)cc1 (stereo not given)	inactive: 93.6%
COc1cc(I)ccc1[As](=O)(O)O	inactive: 106%
COc1ccc2nc(NP(=O)(c3ccccc3)c3ccccc3)sc2c1	inactive: 98.4%
Cc1c2c(nc3ccccc13)SC(C(Cl)Cl)C2 (stereo not given)	inactive: 102%
Cc1cc(=O)[nH]c(N[N+](=O)[O-])n1	inactive: 102%
O=C(OC1CN2CCC1CC2)C12CC3CC(CC(C3)C1)C2 (stereo not given)	inactive: 109%
COc1ccc(N/C(=N/P(=O)(N2CCOCC2)N2CCOCC2)N2CCOCC2)cc1	inactive: 99.8%
CN1CCCC(OC(=O)C(c2ccccc2)c2ccccc2)C1 (stereo not given)	inactive: 97.6%
Clc1ccc(Cl)c(NC2=NCC(CBr)S2)c1 (stereo not given)	inactive: 91.4%
Cc1ccc(OP(=O)(Nc2nccs2)Oc2ccc(C)cc2)cc1	inactive: 105%
COc1ccccc1OP(=O)(Nc1ccc(C)cn1)Oc1ccccc1OC	inactive: 97.7%
Cc1ccc(N/C(=N/P(=O)(N2CCOCC2)N2CCOCC2)N2CCOCC2)cc1	inactive: 92.7%
CN(C(=O)Cc1ccc(Cl)c(Cl)c1)[C@H]1CCCC[C@H]1N1CCCC1	inactive: 99%
NC(=O)c1cc([N+](=O)[O-])cc([N+](=O)[O-])c1N	inactive: 102%
O=C(NC(Sc1ccncn1)C(Cl)(Cl)Cl)c1ccccc1 (stereo not given)	inactive: 108%
Cc1c2non([O-])c-2c(C)[n+](=O)[n+]1[O-]	inactive: 98%
Oc1ccccc1CNc1ccccn1	inactive: 94.7%
Nc1cc(N)c2nonc2c1[N+](=O)[O-]	inactive: 95.3%
CC(C)CC(=O)NC(Sc1ccc(Cl)cc1)C(Cl)(Cl)Cl (stereo not given)	inactive: 101%

SMILES	percent response vs DMSO
CN(C(=O)Cc1ccc(Cl)c(Cl)c1)[C@H]1CCCC[C@@H]1N1CCCC1	inactive: 102%
Cc1ccc(NP(=O)(Oc2ccccc2F)Oc2ccccc2F)nc1	inactive: 93.5%
Cc1cc(SC(NC(=O)c2ccc(F)cc2)C(Cl)(Cl)Cl)ncn1 (stereo not given)	inactive: 99.7%
CCOP(=O)(Nc1ccccc1)OCC	inactive: 96.8%
O=P(Nc1nc2ccc(Cl)cc2s1)(c1ccccc1)c1ccccc1	inactive: 96.3%
CC(=O)Nc1ccc([As](=O)(O)O)cc1	inactive: 96.4%
O=C(O)c1ccccc1[As](=O)(O)O	inactive: 100%
Nc1cccc2ccc([As](=O)(O)O)cc12	inactive: 103%
CCN(N=Nc1nonc1N)c1nonc1N	inactive: 104%
O=[N+]([O-])c1cc([N+](=O)[O-])c(CCN2CCOCC2)c([N+](=O)[O-])c1	inactive: 101%
O=C(Nc1cc([As](=O)(O)O)ccc1O)c1ccccc1	inactive: 107%
O=C(O)CNc1ccc([As](=O)(O)O)cc1	inactive: 102%
O=[N+]([O-])c1cccc(NC2=NCC(CBr)S2)c1 (stereo not given)	inactive: 108%
O=[N+]([O-])c1ncn(CCn2ncnc2[N+](=O)[O-])n1	inactive: 92.4%
CC(C)(C)C(=O)NC(Sc1ccncn1)C(Cl)(Cl)Cl (stereo not given)	inactive: 94.2%
O=[N+]([O-])c1cc([N+](=O)[O-])c(CCNc2ccccc2)c([N+](=O)[O-])c1	inactive: 91.5%
CCc1nc2c(n1)c1c(non1O)c1c2no[n+]1[O-]	inactive: 109%
Cc1ccc(NP(=O)(Oc2ccccc2)Oc2ccccc2)nc1	inactive: 102%
CC(=O)N1C2C3N(C(C)=O)C1C1N(C(C)=O)C(C(N1C(C)=O)N3C(C)=O)N2C(C)=O	inactive: 102%
O=[N+]([O-])c1cccc2n[nH]nc12	inactive: 102%
COc1ccc(C2=NCC(CBr)S2)cc1 (stereo not given)	inactive: 103%
CC1CCN(C(=O)Oc2c(Cl)cc(Cl)c3cccnc23)CC1	inactive: 96.8%

SMILES	percent response vs DMSO
CN(C)C(=O)OCCc1n(C)cc[n+]1C	inactive: 101%
CC(C)=N/N=C(\N)N[N+](=O)[O-]	inactive: 101%
CCN(/C(=N/P(=O)(N1CCOCC1)N1CCOCC1)N1CCOCC1)c1ccc(OC)cc1	inactive: 98.6%
C[N+]1=C2C=CC=CC=C2SC12C([N+](=O)[O-])=CC([N+](=O)[O-])=C[C-]2[N+](=O)[O-] (stereo not given)	inactive: 93.9%
Nc1ccc([As](=O)(O)c2ccc(N)cc2)cc1	inactive: 96.1%
c1nnnn1CCn1cnnn1	inactive: 96.8%
O=P(Nc1nccs1)(c1ccccc1)c1ccccc1	inactive: 100%
CC(C)C(=O)NC(Sc1ccccc1)C(Cl)(Cl)Cl (stereo not given)	inactive: 101%
C[C@H]1OP(=O)(Oc2ccccc2)[C@H](O)[C@H](O)[C@H]1N=[N+]=[N-] (stereo not given in full)	inactive: 97.8%
O=P(Nc1nc2ccccc2s1)(c1ccccc1)c1ccccc1	inactive: 104%
CN(C)C1(CNC(=O)c2ccc(Cl)c(S(N)(=O)=O)c2)CCCCC1	inactive: 103%
O=P(Nc1ccccn1)(c1ccc(Br)cc1)c1ccc(Br)cc1	inactive: 103%
O=C(OC1CN2CCC1CC2)c1cccc(Cl)c1 (stereo not given)	inactive: 98.8%
C(Cc1nn[nH]n1)Cc1nn[nH]n1	inactive: 101%
Nc1ccc([As](=O)(O)c2ccc([N+](=O)[O-])cc2)cc1	inactive: 102%
O=[As](O)(c1ccccc1)c1ccc(O)cc1	inactive: 94.7%
CC(=O)NC(SC(=S)N(C)C)C(Cl)(Cl)Cl (stereo not given)	inactive: 90.2%
O=[N+]([O-])c1ncn(CCn2cnc([N+](=O)[O-])n2)n1	inactive: 97.9%
O=[N+]([O-])c1ccc(O)c(/C=N/Nc2ccc([N+](=O)[O-])cc2[N+](=O)[O-])c1	inactive: 100%
Cc1ccc(NP(=O)(Oc2cccc(C)c2)Oc2cccc(C)c2)nc1	inactive: 106%
CCOC(=O)NC(Sc1ccccc1)C(Cl)(Cl)Cl (stereo not given)	inactive: 99.9%
c1ccc(-c2nn[nH]n2)c(-c2nn[nH]n2)c1	inactive: 96.8%

SMILES	percent response vs DMSO
O=C(NC1CCS(=O)(=O)C1)NP(=S)(Oc1ccccc1)Oc1ccccc1 (stereo not given)	inactive: 91.7%
CCNC(=S)/N=C(\N)N[N+](=O)[O-]	inactive: 99.4%
CN(C)C(=O)Oc1noc2ccccc12	inactive: 95.5%
CC(NC(=O)COC(=O)C(O)(c1ccccc1)c1ccccc1)c1ccccc1 (stereo not given)	inactive: 101%
Cc1ccccc1OP(=O)(Nc1ccccn1)Oc1ccccc1C	inactive: 96.5%
CCC(=O)N1C2C3N(C(=O)CC)C1C1N(C(=O)CC)C(C(N1C(=O)CC)N3C(=O)CC)N2C(=O)CC	inactive: 103%
O=C(OC1CN2CCC1CC2)c1ccccc1 (stereo not given)	inactive: 106%
CC(=O)NC(SC(=S)N(CC(C)C)CC(C)C)C(Cl)(Cl)Cl (stereo not given)	inactive: 101%
Cc1ccc(OP(=O)(Nc2ccccn2)Oc2ccc(C)cc2)cc1	inactive: 95.6%
COC(=O)c1cc2c(s1)N=C(c1ccccc1)N(C)P2(=O)N1CCOCC1 (stereo not given)	inactive: 104%
CC(C)(C)C(=O)NC(Sc1ccccc1)C(Cl)(Cl)Cl (stereo not given)	inactive: 92.3%
CCOc1ccc(C2=NCC(CBr)S2)cc1 (stereo not given)	inactive: 96.3%
O=P1(Nc2nc3ccc(Cl)cc3s2)COc2ccccc2O1 (stereo not given)	inactive: 97.6%
CC(=O)Nc1ccc(Oc2c([N+](=O)[O-])cc([N+](=O)[O-])cc2[N+](=O)[O-])cc1	inactive: 98.3%
CC(=O)Nc1ccc([As](=O)(O)O)c(O)c1	inactive: 104%
C[C@H]1OP(=O)(Oc2ccccc2)C[C@@H]2O[C@@H]21 (stereo not given in full)	inactive: 100%
C[C@@H]1C=CCP(=O)(Oc2ccccc2)O1 (stereo not given in full)	inactive: 101%
Cc1ccccc1CN(C)C(=O)COC(=O)C(O)(c1ccccc1)c1ccccc1	inactive: 98.1%
CC(=O)c1ccc(N2CC2c2ccncc2)cc1 (stereo not given)	inactive: 97.3%
